pIC50: −log10 of the molar value.
Biological target: T1, Polyunsaturated fatty acid 5-lipoxygenase (Rattus norvegicus, UniProt P12527)
T1 sequence (P12527 whole entry): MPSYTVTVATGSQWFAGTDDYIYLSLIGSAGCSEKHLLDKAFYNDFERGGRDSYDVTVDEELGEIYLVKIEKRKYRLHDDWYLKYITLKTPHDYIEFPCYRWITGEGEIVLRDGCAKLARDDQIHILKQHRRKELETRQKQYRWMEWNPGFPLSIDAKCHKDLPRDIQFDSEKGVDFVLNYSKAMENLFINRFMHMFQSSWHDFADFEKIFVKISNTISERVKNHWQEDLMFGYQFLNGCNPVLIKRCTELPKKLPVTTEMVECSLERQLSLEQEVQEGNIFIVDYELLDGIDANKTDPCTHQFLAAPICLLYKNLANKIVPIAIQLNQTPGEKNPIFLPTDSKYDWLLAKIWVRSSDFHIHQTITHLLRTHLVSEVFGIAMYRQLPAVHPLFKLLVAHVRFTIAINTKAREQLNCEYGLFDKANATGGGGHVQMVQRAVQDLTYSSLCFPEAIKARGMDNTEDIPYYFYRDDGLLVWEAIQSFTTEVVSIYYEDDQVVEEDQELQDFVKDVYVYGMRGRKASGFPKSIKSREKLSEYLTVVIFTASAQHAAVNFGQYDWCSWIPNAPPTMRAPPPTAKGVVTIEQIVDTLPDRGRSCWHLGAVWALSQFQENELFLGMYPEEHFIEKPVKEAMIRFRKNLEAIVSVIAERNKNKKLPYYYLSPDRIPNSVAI
Assay: Inhibitory activity against 5-lipoxygenase catalysis (5-LO) in sonicated rat basophilic leukemia cell lysate
Assay type: functional

Row | SMILES | pIC50
1 | COc1ccc2cc([C@H](C)NC(=O)NO)ccc2c1 | 5.32
2 | COc1ccc2cc([C@H](C)C(=O)O)ccc2c1 [NAPROXEN] | 4.77

— ChEMBL document CHEMBL1129962, “Nonsteroidal anti-inflammatory drugs as scaffolds for the design of 5-lipoxygenase inhibitors” (J Med Chem, 1997)
